Data as given in patent US11542497B2, “Method for evaluating multiple different genes of interest” (THE UNIVERSITY OF TOKYO, priority 2017, dated 2023).

Test system: Ba/F3 cells expressing active EGFR mutants (11 kinds) or other oncoproteins (5 kinds)
Assay: MANO method, drug sensitivity of 16 pooled Ba/F3 cell clones (Example 1, FIG. 3)
Format: cell-based
Protocol: HEK (Human Embryonic kidney) 293 cells and mouse 3T3 fibroblasts were obtained from the American Type Culture Collection and maintained in Dulbecco's modified Eagle medium-F-12 (DMEM-F12) supplemented with 10% FBS (both from Thermo Fisher Scientific, Waltham, Mass.). Ba/F3 cells were cultured in RPMI 1640 medium (Thermo Fisher Scientific) supplemented with 10% FBS and mouse IL-3 (20 U/mL; Sigma, St. Louis, Mo.).
First, 60-bp nucleotides (SEQ ID NO: 9) were inserted into the BamHI restriction enzyme site of pcx4-bleo vector (https://www.addgene.org/vector-database/2309/). […]
The recombinant plasmids prepared as described above were introduced together with packaging plasmids (Takara Bio, Shiga, Japan) into HEK293 cells to obtain recombinant retroviral particles. […] Cell transformation was assessed through either phase-contrast microscopy or staining with Giemsa solution. […]
The amplified PCR products were purified using AMPure beads (Beckman Coulter, Brea, Calif.). […] The library quality was assessed using a Qubit 2.0 fluorometer (Thermo Fisher Scientific) and the Agilent 2200 Tape Station system. The library was sequenced on an Illumina MiSeq (at 300 cycles) using Reagent Kit V2 to give 150-bp paired-end reads. These sequence reads included the following bar code-containing sequences: 5′-[…]-3′ (SEQ ID NO: 12) (where N denotes any nucleotide) and their complementary sequences. […]

COc1cc2ncnc(Nc3ccc(F)c(Cl)c3)c2cc1OCCCN1CCOCC1 [gefitinib]
cell death of cells having TKI-sensitive EGFR mutants: dose-dependent cell death
drug sensitivity of EGFR(T790M)-expressing Ba/F3 cell: resistant
